Laboratory results taken from US20250263370A1 (Tay Therapeutics Limited, priority 2022, published 2025).

Test system: rat anti-collagen IgG1 antibodies
Test: Rat anti-collagen IgG1 antibodies in serum of CIA rats at day 21
Assay type: in vivo, Lewis rat
Settings: Group 3 (CIA + Dexamethasone), day 21, per animal

SMILES: C[C@@H]1C[C@H]2[C@@H]3CCC4=CC(=O)C=C[C@]4(C)[C@@]3(F)[C@@H](O)C[C@]2(C)[C@@]1(O)C(=O)CO [dexamethasone]
- Final Rat Anti-Collagen IgG1 Antibody Con.: 11736.83 units/ml
